The target in this experiment is JAK2 (Homo sapiens (Human), UniProt O60674). Put plainly: KINOMEscan kinase binding assay (DiscoveRx). As to the method: Kinase binding assays were performed at DiscoveRx using the general KINOMEscan Kd Protocol (Fabian, M. A. et al., “A small molecule-kinase interaction map for clinical kinase inhibitors,” Nat. Biotechnol. 2005, 23(3):329-36). For most assays, kinase-tagged T7 phage strains were prepared in an E. coli host derived from the BL21 strain. E. coli were grown to log-phase and infected with T7 phage and incubated with shaking at 32° C. until lysis. The lysates were centrifuged and filtered to remove cell debris. The remaining kinases were produced in HEK-293 cells and subsequently tagged with DNA for qPCR detection. Streptavidin-coated magnetic beads were treated with biotinylated small molecule ligands for 30 minutes at room temperature to generate affinity resins for kinase assays. The liganded beads were blocked with excess biotin and washed with blocking buffer (SeaBlock (Pierce), 1% BSA, 0.05% Tween 20, 1 mM DTT) to remove unbound ligand and to reduce nonspecific binding. […] All reactions were performed in polystyrene 96-well plates in a final volume of 0.135 mL. The assay plates were incubated at room temperature with shaking for 1 hour and the affinity beads were washed with wash buffer (1×PBS, 0.05% Tween 20). […] The kinase concentration in the eluates was measured by qPCR.

The chains behind the UniProt entries cited, without tags or fusion partners. Where a name states a change or a piece, a line headed by the entry shows the natural chain unless it says otherwise.
UniProt O60674: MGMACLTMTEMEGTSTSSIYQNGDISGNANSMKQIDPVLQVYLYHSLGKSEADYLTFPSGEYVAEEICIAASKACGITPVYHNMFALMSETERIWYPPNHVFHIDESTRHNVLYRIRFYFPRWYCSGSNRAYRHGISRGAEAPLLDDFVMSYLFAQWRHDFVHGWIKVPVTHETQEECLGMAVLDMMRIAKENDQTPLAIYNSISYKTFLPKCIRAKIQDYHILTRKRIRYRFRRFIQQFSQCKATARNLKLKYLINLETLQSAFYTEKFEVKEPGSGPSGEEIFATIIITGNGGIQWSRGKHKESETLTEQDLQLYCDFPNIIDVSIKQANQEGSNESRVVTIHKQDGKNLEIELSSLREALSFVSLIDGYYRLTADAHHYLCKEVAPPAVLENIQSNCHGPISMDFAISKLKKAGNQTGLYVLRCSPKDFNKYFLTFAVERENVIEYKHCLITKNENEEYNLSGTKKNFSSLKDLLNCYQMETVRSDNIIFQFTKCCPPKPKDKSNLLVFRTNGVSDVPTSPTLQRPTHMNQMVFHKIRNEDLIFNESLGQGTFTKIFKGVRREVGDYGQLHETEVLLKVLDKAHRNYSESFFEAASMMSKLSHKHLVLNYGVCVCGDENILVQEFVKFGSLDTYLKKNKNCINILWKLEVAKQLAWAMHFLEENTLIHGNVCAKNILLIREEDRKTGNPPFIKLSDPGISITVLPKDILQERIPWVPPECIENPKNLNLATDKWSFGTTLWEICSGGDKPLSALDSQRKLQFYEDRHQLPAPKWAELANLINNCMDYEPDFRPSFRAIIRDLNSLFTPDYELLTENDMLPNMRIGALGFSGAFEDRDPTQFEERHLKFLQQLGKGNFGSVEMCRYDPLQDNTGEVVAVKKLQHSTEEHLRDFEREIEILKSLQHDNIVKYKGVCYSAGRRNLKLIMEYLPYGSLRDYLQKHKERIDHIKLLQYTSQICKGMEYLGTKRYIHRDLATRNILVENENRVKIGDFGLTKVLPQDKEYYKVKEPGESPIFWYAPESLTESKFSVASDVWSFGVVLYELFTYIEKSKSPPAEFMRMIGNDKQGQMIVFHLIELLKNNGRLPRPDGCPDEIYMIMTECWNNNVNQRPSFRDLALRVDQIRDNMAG

pKd: −log10 of the molar value.

As to `C[C@H]1CNC(=O)c2cnn3ccc(nc23)N[C@H](C)c2cc(F)ccc2O1` [Example 93, (7S,13R)-11-fluoro-7,13-dimethyl-6,7,13,14-tetrahydro-1,15-ethenopyrazolo[4,3-f][1,4,8,10]benzoxatriazacyclotridecin-4(5H)-one], the pKd was 10.09.

For the origin of these results see US10246466B2, “Diaryl macrocycles as modulators of protein kinases” (TP THERAPEUTICS, INC., priority 2014, dated 2019).
